From US10538545B2 (priority 2017, dated 2020)

Key:
[1] = test system: AB (wild type) zebrafish embryos; test: Analysis of myocardial contractility and cardiac output in zebrafish embryos; format: in vivo
[2] = Time-dependent decomposition of DNIC-1 in buffer monitored by UV-vis; settings: for half-life of decomposition: aerobic 25 mM KPi buffer, pH 7.0, pseudo-first order kinetics assumed
[3] = test system: WT-AB zebrafish embryos; test: Toxicity test of DNIC in zebrafish embryos; settings: 50 μM DNIC, 200 μM SNP; for acute toxicity on zebrafish embryo: 3-dpf zebrafish, 30 minutes; for Survival rate of zebrafish, Day 3 / Survival rate of zebrafish, Day 4 / Survival rate of zebrafish, Day 5: incubated 30 minutes on day 3, n = 300
[4] = In vitro release of NO from DNIC-1 determined by Griess reagent; settings: 15 μM DNIC, 25 mM KPi buffer pH 7.0, aerobic, 48 hours
[5] = test system: Tg (kdr:EGFP) zebrafish embryos; test: Analysis of vasodilation in zebrafish embryos (dorsal aorta diameter); format: in vivo; settings: 3-dpf KDR zebrafish, 30 min; 50 μM DNIC-1b, 50 μM DNIC-2a, 200 μM SNP; control 21.2 ± 0.2
[6] = test system: soluble guanylate cyclase (sGC); test: Activation of sGC in CX3553 (str-1::GFP) worms; format: in vivo, C. elegans; settings: 400 μM for 30 minutes
[7] = test system: C. elegans (N2); test: In vivo release of NO from DNIC-1a in C. elegans (FA-OMe fluorescence); settings: 500 μM for 15 minutes, then FA-OMe 0.5 hour
[8] = test system: C. elegans (N2); test: Uptake and export of DNIC-1a in C. elegans (Fe content by ICP-MS); settings: N2 worms incubated with 500 μM for 15 minutes; untreated 46.8±3.6
[9] = test system: C. elegans; test: Analysis of cell senescence in C. elegans (SA-βgal activity, X-gal); settings: 10 μM for 15 minutes on Day 1, 4 and 7; 13-day-old worms
[10] = test system: C. elegans (N2); test: Analysis of lifespan in C. elegans; settings: 10 μM for 15 minutes on Day 1, 4 and 7, n=200

## [(NO)2Fe(μ-SEtCOOH)2Fe(NO)2]
[1]; 50 μM DNIC-1b, 200 μM SNP, 30 minutes
  change of short-axis diameter of the heart and ventricular volume at end diastole (ED): significant increase
[1]; 30 min, 50 μM DNIC-1b, 50 μM DNIC-2a, 200 μM SNP, 5 μg/mL epinephrine, control 0.14 ± 0.02
  Fractional Shortening: 0.22 ± 0.03
[1]; end diastole, 30 min, 50 μM DNIC-1b, 50 μM DNIC-2a, 200 μM SNP, 5 μg/mL epinephrine, control 82.2 ± 2.0
  Short Axis Diameter ED(Dd): 92.3 ± 2.9 μm
[1]; end diastole, prolate spheroid assumed, same treatments, control 0.55 ± 0.02
  Ventricular Volume ED: 0.66 ± 0.05 nL
[1]; end systole, 30 min, 50 μM DNIC-1b, 50 μM DNIC-2a, 200 μM SNP, 5 μg/mL epinephrine, control 70.4 ± 2.5
  Short Axis Diameter ES(Ds): 72.3 ± 3.1 μm
[1]; end systole, prolate spheroid assumed, same treatments, control 0.33 ± 0.02
  Ventricular Volume ES: 0.32 ± 0.05 nL
[1]; heart rate × (ED volume − ES volume), same treatments, control 25.9 ± 4.5
  Cardiac Output: 45.8 ± 5.1 nL/min
[1]; same treatments, control 0.21 ± 0.02
  Ventricular Volume ED-ES: 0.34 ± 0.05 nL
[1]; same treatments, control 124 ± 4
  Heart Rate: 133 ± 5 bpm
[2]
  half-life of decomposition: 25.9 ± 0.4 h
[3]
  acute toxicity on zebrafish embryo: no acute toxicity
  Survival rate of zebrafish, Day 3: 100 ± 0.0%
  Survival rate of zebrafish, Day 4: 100 ± 0.0%
  Survival rate of zebrafish, Day 5: 100 ± 0.0%
[4]
  Total amount of NO released determined by Griess reagent: 26.1 ± 0.1 µM
[5]
  Vessel Diameter (dorsal aorta diameter): 23.0±1.1 μm

## [(NO)2Fe(μ-SEtOH)2Fe(NO)2]
[2]
  half-life of decomposition: 27.4 ± 0.5 h
[2]; anaerobic condition
  stability under anaerobic condition: stability
[6]
  increase of the GFP fluorescence signal in CX3553 worms: about 5.7 fold
[3]
  acute toxicity on zebrafish embryo: dramatic death of 5-dpf zebrafish
  Survival rate of zebrafish, Day 3: 100 ± 0.0%
  Survival rate of zebrafish, Day 4: 86.4 ± 10.5%
  Survival rate of zebrafish, Day 5: 62.3 ± 19.3%
[4]
  Total amount of NO released determined by Griess reagent: 30.3 ± 1.0 µM
[7]
  NO release in C. elegans (FA-OMe fluorescence): released ●NO in the intestine of C. elegans
[8]
  total amount of Fe right after treatment: 190.7±39.4 ng per 100 worms
[9]
  cell senescence (SA-βgal activity): significantly delayed the cell senescence
[10]; control 16.9±0.5 days
  lifespan: 18.7 ± 0.4 days
[10]; vs 0 μM
  extension of lifespan: 10.7%

## [(NO)2Fe(μ-SPhCOOH)2Fe(NO)2]
[2]
  half-life of decomposition: 0.6 ± 0.1 h
[4]
  Total amount of NO released determined by Griess reagent: 24.4 ± 0.2 µM
